# Experimental data as given in publication PMC12592420, “A mismatch in enzyme-redox partnerships underlies divergent cytochrome P450 activities between human hepatocytes and microsomes” (Communications Biology, 2025).
# Where “and” joins values, the source holds several entries; their conditions need not be identical. Equal entries are not always repeated.
# How the values were obtained:
# [1] = Free fraction in HLM incubation, equilibrium dialysis; format: in vitro ADME, human; settings: fraction unbound, measured or estimated by in silico models of Fuinc
# [2] = system: rat hepatocytes; assay: Free fraction in rat hepatocytes as surrogate for HH, equilibrium dialysis; settings: fraction unbound, measured or estimated by in silico models of Fuinc
# [3] = Incubations in human liver S9 + NADPH (same donor pool as HLM); format: in vitro ADME; settings: S9 + NADPH + 5 uM GEF (Fig. 6b)
# [4] = in vitro; settings: both, human, hepatocytes
# [5] = physchem
# [6] = system: MDR1 (P-gp); assay: Efflux ratio in NIH MDCKI-MDR1 cells; settings: dog, pH 7.4, Efflux ratio, individual wells
# [7] = system: NIH MDCKI-MDR1 cell line; assay: Efflux ratio in NIH MDCKI-MDR1 cells; settings: 0.1 µM, individual wells
# [8] = system: MDCKII-MDR1-BCRP cell line; assay: Efflux ratio in MDCKII-MDR1-BCRP cells; settings: 0.1 µM, individual wells
# [9] = system: MDR1 (P-gp), BCRP; assay: Efflux ratio in MDCKII-MDR1-BCRP cells; settings: dog, pH 7.4, Efflux ratio, individual wells
# [10] = CLint in NADPH-supplemented human liver microsomes
Structure (SMILES),fu_HLM [1],fu_ratHH [2],Percentage of midazolam alone [3],hepatocyte CLint ([4]; HH_CLint) [µL/min/1e6 cells],hepatocyte CLint ([4]; Midazolam CLint) [µL/min/1e6 cells],logD [5],"efflux ratio at 2 h, 0.1 µM [6]",Efflux ratio [7],Efflux ratio [8],"efflux ratio at 2 h, 0.1 µM [9]","HLM scaled CLint,u relative to HH ([10]; NADPH as cofactor (Fig. 3A))","HLM/HH (ratio of scaled CLint,u) ([10]; NADPH-HLM average over HH average, Fig. 1)"
COc1ccccc1OCCNCC(O)COc1cccc2[nH]c3ccccc3c12 (stereo not drawn) [Carvedilol],0.117,0.161,–,–,–,–,–,–,–,–,–,–
Cc1ncc2n1-c1ccc(Cl)cc1C(c1ccccc1F)=NC2 [Midazolam],–,–,194.56% and 222.982% and 196.935%,19.5,22.3,3.4,1.24,1.26,0.52,0.5,over 5 fold,12.6626
